This is an account of results in ChEMBL document CHEMBL1132231, “New generation dopaminergic agents. 6. Structure-activity relationship studies of a series of 4-(aminoethoxy)indole and 4-(aminoethoxy)indolone derivatives based on the newly discovered 3-hydroxyphenoxyethylamine D2 template” (J Med Chem, 1999).

Sequences of proteins named here, by UniProt entry; tags and fusion partners are left off.
UniProt P61169, whole entry: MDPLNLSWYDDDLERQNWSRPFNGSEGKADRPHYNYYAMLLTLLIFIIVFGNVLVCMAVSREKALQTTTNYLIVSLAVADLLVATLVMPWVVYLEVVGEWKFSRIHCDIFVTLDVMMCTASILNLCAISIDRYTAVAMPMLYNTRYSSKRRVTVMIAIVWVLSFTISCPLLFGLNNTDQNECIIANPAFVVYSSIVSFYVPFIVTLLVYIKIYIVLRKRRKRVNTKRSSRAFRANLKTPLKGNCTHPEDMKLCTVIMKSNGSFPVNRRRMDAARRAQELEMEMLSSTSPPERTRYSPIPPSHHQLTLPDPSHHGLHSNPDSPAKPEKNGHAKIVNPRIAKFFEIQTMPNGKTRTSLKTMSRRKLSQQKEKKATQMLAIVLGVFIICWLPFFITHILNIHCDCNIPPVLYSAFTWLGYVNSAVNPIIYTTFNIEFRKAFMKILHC

In assay [1] the target is D(2) dopamine receptor (Rattus norvegicus, UniProt P61169). Put plainly: In vitro low binding affinity towards Dopamine receptor D2 by the displacement of [3H]spiperone radioligand in rat striatal membranes. Format: cell membranes, Membrane.
Assay [2] has as its target D(2) dopamine receptor (Rattus norvegicus) (UniProt P61169). Put plainly: Ratio of Dopamine D2 receptor (low)and Dopamine D2 receptor (high). In outline:
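Ratio Ki(low)/Ki(high). Ki(low) comes from displacement of 1 nM [3H]spiperone in striatal membranes with 1 mM GppNHp and NaCl, 37 °C for 5 min. […] Both Ki values derived by Cheng-Prusoff from nine concentrations in triplicate; the ratio serves as an estimate of intrinsic activity.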

For `O=C1Cc2c(OCCNCc3cccc(-c4ccccc4)c3)ccc(F)c2N1`, the affinity in assay [1] corresponds to a Ki of 3.92 nM. That is a single-digit nanomolar value.
Regarding `O=C(c1c[nH]c2c(Cl)ccc(OCCNCc3ccccc3)c12)C(F)(F)F`, in assay [2], the Ratio is 1.
